From patent publication US20040266864A1, “Methods for treating depression and other CNS disorders using enantiomerically enriched desmethyl-and didesmethyl-metabolites of citalopram” (Sepracor Inc., priority 2001, published 2004)

Amino acid sequences for entries named in this document (tags omitted).
UniProt P23977, whole entry: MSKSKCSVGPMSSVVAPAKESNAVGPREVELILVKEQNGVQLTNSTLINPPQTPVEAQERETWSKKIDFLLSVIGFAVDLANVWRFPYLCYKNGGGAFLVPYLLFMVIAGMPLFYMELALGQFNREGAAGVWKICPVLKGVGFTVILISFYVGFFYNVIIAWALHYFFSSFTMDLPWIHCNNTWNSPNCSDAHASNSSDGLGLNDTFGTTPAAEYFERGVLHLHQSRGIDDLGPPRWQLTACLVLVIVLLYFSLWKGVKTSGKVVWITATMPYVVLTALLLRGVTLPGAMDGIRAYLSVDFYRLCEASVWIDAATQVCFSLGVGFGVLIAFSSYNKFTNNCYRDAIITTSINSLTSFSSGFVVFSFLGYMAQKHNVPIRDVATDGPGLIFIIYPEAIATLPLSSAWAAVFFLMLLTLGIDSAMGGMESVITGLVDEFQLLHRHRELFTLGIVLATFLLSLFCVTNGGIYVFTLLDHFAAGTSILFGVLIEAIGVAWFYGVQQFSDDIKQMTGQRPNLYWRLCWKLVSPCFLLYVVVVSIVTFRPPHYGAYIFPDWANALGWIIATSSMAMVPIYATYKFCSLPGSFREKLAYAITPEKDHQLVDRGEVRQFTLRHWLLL

Molecular target: DA uptake (Rattus norvegicus, UniProt P23977)
Assay: Inhibition of dopamine reuptake into rat brain synaptosomes

CN(C)CCCC1(c2ccc(F)cc2)OCc2cc(C#N)ccc21 (racemic) [Racemic Citalopram, (±)-1-(3-dimethylaminopropyl)-1-(4-fluorophenyl)-1,3-dihydroisobenzofuran-5-carbonitrile, reference compound]
IC50: 13 µM
